Experiments:
[1] = molecular target: casein coated-gold nanoparticles (βCas AuNPs); assay: thermogravimetric analysis (TGA) of centrifuged pellets; pellets of βCas or βCas AuNPs incubated with Aβ as for the BCA assay; held at 80 °C for 30 min, scanned 80-800 °C at 10 °C/min under nitrogen
[2] = molecular target: casein coated-gold nanoparticles (βCas AuNPs); assay: co-sedimentation; 6.25 µM βCas or equivalent βCas AuNPs incubated with 2-1137 µM Aβm or Aβo for 48 h at 37 °C in deionized water; centrifuged at 17,300 x g for 30 min; protein in the pellet quantified by BCA

Substance	Aβ concentration beyond which the TGA curve no longer changed (binding saturation) [1] [mM]	maximum binding capacity (βCas AuNPs, 6.25 µM βCas equivalent) [2] [µM]
amyloid beta 42 monomers (from UniProt P05067 672-713) (peptide)	0.3	152
amyloid beta 42 oligomers (from UniProt P05067 672-713) (peptide)	–	191

— PMC6706415
